# Earlier results, collected in US12312352B2, “Use of a DPP-4 inhibitor in SIRS and/or sepsis” (Boehringer ingelheim International GmbH, priority 2012, dated 2025).
# System: septic animals
# Conditions: previous studies; cited from earlier work
smiles,measurement,value
CC#CCn1c(N2CCC[C@@H](N)C2)nc2c1c(=O)n(Cc1nc(C)c3ccccc3n1)c(=O)n2C [linagliptin],sepsis-induced increases in DPP-4 activity,suppression of sepsis-induced increases in DPP-4 activity
